Earlier results in patent US7465549B2 (UCB, S.A., priority 2002, dated 2008).

By UniProt entry, the sequences of proteins in these tests, tags left out.
UniProt Q02563, whole entry: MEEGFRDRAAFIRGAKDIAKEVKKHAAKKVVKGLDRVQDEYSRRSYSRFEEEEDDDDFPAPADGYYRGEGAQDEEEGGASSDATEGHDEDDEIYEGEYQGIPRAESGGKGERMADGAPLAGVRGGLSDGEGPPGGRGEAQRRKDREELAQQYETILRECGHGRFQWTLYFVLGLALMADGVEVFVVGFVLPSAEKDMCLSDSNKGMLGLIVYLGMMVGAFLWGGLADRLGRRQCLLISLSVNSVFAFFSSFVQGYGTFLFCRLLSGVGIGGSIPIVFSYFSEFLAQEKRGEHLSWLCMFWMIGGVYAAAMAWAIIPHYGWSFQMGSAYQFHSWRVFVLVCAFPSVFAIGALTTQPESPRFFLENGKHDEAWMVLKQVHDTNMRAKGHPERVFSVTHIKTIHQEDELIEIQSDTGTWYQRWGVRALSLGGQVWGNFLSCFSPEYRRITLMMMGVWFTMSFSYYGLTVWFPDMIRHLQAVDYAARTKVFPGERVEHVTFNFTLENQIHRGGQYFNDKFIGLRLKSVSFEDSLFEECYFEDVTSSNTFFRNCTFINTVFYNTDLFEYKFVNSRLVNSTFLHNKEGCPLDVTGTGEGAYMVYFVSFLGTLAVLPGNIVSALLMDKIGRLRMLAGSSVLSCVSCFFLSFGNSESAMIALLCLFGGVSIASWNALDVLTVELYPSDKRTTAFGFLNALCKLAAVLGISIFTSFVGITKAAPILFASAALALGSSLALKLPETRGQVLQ

Biological target: levetiracetam binding site (LBS) (Rattus norvegicus, UniProt Q02563)
Conditions: rat brain LBS; cited from earlier work

t-butylbicyclophosphorothionate
displacement of LEV binding: do not displace LEV binding
